Assay results: PubChem BioAssay (NCI)
Where “and” joins values, the source holds several entries; their conditions need not be identical. Equal values may be shown once. This is a selection; strong and weak results do not stand in their true shares.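 Results are percent growth after 48 hours of single-concentration exposure. 100 means growth as in untreated cells, lower positive values show inhibition; negative values down to -100 show cell death.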 Calls of active or inactive are those of the source. Rule for the calls: active = growth percent below 10; inactive = the rest.

These compounds were tested on MOLT-4 leukemia (assay: NCI-60 one-dose screen, 48 h (100 = growth as untreated, 0 = no growth, -100 = all killed)). Conditions: 10 µM unless noted.

| SMILES | growth |
| --- | --- |
| CC1CCNP(=O)(N(CCCl)CCCl)O1 (stereo unspecified) | inactive: 90.5% |
| CCN(CCCl)CC1OC(O)C(O)C1O (stereo unspecified) | inactive: 104% |
| CN(CCCl)/N=N/c1nc2nc[nH]c(=O)c2[nH]1 | inactive: 93.2% |
| Nc1ccc(N(CCCl)CCCl)cc1 | inactive: 18.2% |
| c1cc(-c2nn[nH]n2)ccc1-c1nn[nH]n1 | inactive: 97.2% |
| CCCC1OP(N)(=O)OCC1CC (stereo unspecified) | inactive: 97.7% |
| CCOP(=S)(OCC)OCC | inactive: 111% |
| CCOP(=S)(OCC)SCCCl | inactive: 106% |
| CN(C)P1(Cl)=NP(Cl)(N(C)C)=NP(Cl)(N(C)C)=N1 (stereo unspecified) | inactive: 67.5% |
| Nc1ccc(CCCCOc2ccccc2)cc1 | inactive: 38.3% |
| O=[N+]([O-])c1cccc(Oc2ccc([N+](=O)[O-])cc2[N+](=O)[O-])c1 | inactive: 25.5% |
| CCN(CC)[P+](c1ccc(OC)cc1OC)(N(CC)CC)N(CC)CC | inactive: 52.8% |
| O=C(Nc1ccc([N+](=O)[O-])cc1)N(CCBr)CCBr | inactive: 107% |
| O=P1(N(CCCl)CCCl)Nc2ccccc2N1 | inactive: 98.7% |
| ClCCNCc1ccccc1 | inactive: 95.2% |
| O=C(O)/C=C\c1cccc(N(CCCl)CCCl)c1 | inactive: 95.5% |
| O=C(O[C@H]1CN2CCC1CC2)C1NCc2ccccc2[C@@H]1c1ccccc1 (stereo partly specified) | inactive: 98.3% |
| CC(=O)Nc1ccc([As](=O)(O)O)c(O)c1 | inactive: 95.7% |
| ClCCN1CCNCC1 | inactive: 107% |

| SMILES | growth |
| --- | --- |
| Cc1cc([N+](=O)[O-])cc([N+](=O)[O-])c1O | inactive: 93.5% |
| O=C(OC1CN2CCC1CC2)c1ccccc1 (stereo unspecified) | inactive: 103% |
| O=C(c1ccc([N+](=O)[O-])cc1)N(CCCl)CCCl | inactive: 96.3% |
| CCCCCCCCCCNP(=S)(Cl)Cl | inactive: 96.3% |
| COc1cc([N+](=O)[O-])c(Nc2ccc(Cl)cc2[N+](=O)[O-])c([N+](=O)[O-])c1 | inactive: 70.3% |
| O=[As]c1ccc(S(=O)(=O)Nc2ccccc2)cc1 (stereo unspecified) | inactive: 25.2% |
| Cc1ccc(S(=O)(=O)CN(CCCl)CCCl)cc1 | inactive: 99.8% |
| CCCN(CCCl)C1c2ccccc2-c2ccccc21 | inactive: 81.1% |
| CC(Cl)CN(CC(C)Cl)C(=O)c1ccccc1 (stereo unspecified) | inactive: 95.3% |
| CC(Cl)CN(CC(C)Cl)C(=O)OCC(N)C(=O)O (stereo unspecified) | inactive: 97.3% and inactive: 105% |
| C[As](=O)(O)c1cccc(C(=O)O)c1 | inactive: 102% |
| Cc1ccc(S(=O)(=O)N(CCCN)CCCc2c(C)nc(N)[nH]c2=O)cc1 | inactive: 96.9% |
| Cn1c(COc2ccc([N+](=O)[O-])cc2[N+](=O)[O-])cnc1[N+](=O)[O-] | inactive: 97.7% |
| O=[N+]([O-])c1ccc(CCCCCCc2ccc([N+](=O)[O-])cc2[N+](=O)[O-])c([N+](=O)[O-])c1 | inactive: 19.7% |
| CCSC(O)C(Cl)(Cl)Cl (stereo unspecified) | inactive: 105% |
| O=[N+]([O-])c1cc(Cl)cc([N+](=O)[O-])c1O | inactive: 108% |
| OP1OCCO1 | inactive: 97.1% |
| N#CC(C#N)=C(C#N)N(CCCl)CCCl | inactive: 65.4% |
| CC[C@H](C)[C@@H]1NC(=O)/C(=C(\C)O)C1=O | inactive: 114% |

The compounds below were run on SR leukemia in the same assay as above. Conditions: 10 µM unless noted.

| SMILES | growth |
| --- | --- |
| CC1CCNP(=O)(N(CCCl)CCCl)O1 (stereo unspecified) | inactive: 95.2% |
| CCN(CCCl)CC1OC(O)C(O)C1O (stereo unspecified) | inactive: 96.3% |
| CN(CCCl)/N=N/c1nc2nc[nH]c(=O)c2[nH]1 | inactive: 99.1% |
| Nc1ccc(N(CCCl)CCCl)cc1 | active: 3.14% |
| c1cc(-c2nn[nH]n2)ccc1-c1nn[nH]n1 | inactive: 109% |
| CCCC1OP(N)(=O)OCC1CC (stereo unspecified) | inactive: 99.5% and inactive: 123% |
| CCOP(=S)(OCC)OCC | inactive: 106% |
| CCOP(=S)(OCC)SCCCl | inactive: 112% |
| CN(C)P1(Cl)=NP(Cl)(N(C)C)=NP(Cl)(N(C)C)=N1 (stereo unspecified) | inactive: 90.1% |
| Nc1ccc(CCCCOc2ccccc2)cc1 | inactive: 66.5% |
| O=[N+]([O-])c1cccc(Oc2ccc([N+](=O)[O-])cc2[N+](=O)[O-])c1 | inactive: 14.9% |
| CCN(CC)[P+](c1ccc(OC)cc1OC)(N(CC)CC)N(CC)CC | active: 2.75% |
| O=C(Nc1ccc([N+](=O)[O-])cc1)N(CCBr)CCBr | inactive: 94.2% |
| O=P1(N(CCCl)CCCl)Nc2ccccc2N1 | inactive: 110% |
| ClCCNCc1ccccc1 | inactive: 97.4% |
| O=C(O)/C=C\c1cccc(N(CCCl)CCCl)c1 | inactive: 75% |
| O=C(O[C@H]1CN2CCC1CC2)C1NCc2ccccc2[C@@H]1c1ccccc1 (stereo partly specified) | inactive: 85% |
| CC(=O)Nc1ccc([As](=O)(O)O)c(O)c1 | inactive: 97.8% |
| ClCCN1CCNCC1 | inactive: 108% |

| SMILES | growth |
| --- | --- |
| Cc1cc([N+](=O)[O-])cc([N+](=O)[O-])c1O | inactive: 103% |
| O=C(OC1CN2CCC1CC2)c1ccccc1 (stereo unspecified) | inactive: 104% |
| O=C(c1ccc([N+](=O)[O-])cc1)N(CCCl)CCCl | inactive: 113% |
| CCCCCCCCCCNP(=S)(Cl)Cl | inactive: 93.8% |
| COc1cc([N+](=O)[O-])c(Nc2ccc(Cl)cc2[N+](=O)[O-])c([N+](=O)[O-])c1 | inactive: 60% |
| O=[As]c1ccc(S(=O)(=O)Nc2ccccc2)cc1 (stereo unspecified) | active: -17% |
| Cc1ccc(S(=O)(=O)CN(CCCl)CCCl)cc1 | inactive: 104% |
| CCCN(CCCl)C1c2ccccc2-c2ccccc21 | inactive: 75.3% |
| CC(Cl)CN(CC(C)Cl)C(=O)c1ccccc1 (stereo unspecified) | inactive: 90.3% |
| CC(Cl)CN(CC(C)Cl)C(=O)OCC(N)C(=O)O (stereo unspecified) | inactive: 101% and inactive: 97.2% |
| C[As](=O)(O)c1cccc(C(=O)O)c1 | inactive: 101% |
| Cc1ccc(S(=O)(=O)N(CCCN)CCCc2c(C)nc(N)[nH]c2=O)cc1 | inactive: 99.6% |
| Cn1c(COc2ccc([N+](=O)[O-])cc2[N+](=O)[O-])cnc1[N+](=O)[O-] | inactive: 104% |
| O=[N+]([O-])c1ccc(CCCCCCc2ccc([N+](=O)[O-])cc2[N+](=O)[O-])c([N+](=O)[O-])c1 | inactive: 79.7% |
| CCSC(O)C(Cl)(Cl)Cl (stereo unspecified) | inactive: 99.4% |
| O=[N+]([O-])c1cc(Cl)cc([N+](=O)[O-])c1O | inactive: 102% |
| OP1OCCO1 | inactive: 82.2% |
| N#CC(C#N)=C(C#N)N(CCCl)CCCl | inactive: 50.5% |
| CC[C@H](C)[C@@H]1NC(=O)/C(=C(\C)O)C1=O | inactive: 152% |
